Experimental findings from patent US7732162 are described below.

In one series the target is T1, H-Gln-Ala-Ala-NH2.
T1 chain: QAA

The target of another series is T2, [Gln^3]Aβ3-11a.
T2 chain: QFRHDSGYE

B1: recombinant human glutaminyl cyclase (QC) (protein)
chain: EEKNYHQPAILNSSALRQIAEGTSISEMWQNDLQPLLIERYPGSPGSYAARQHIMQRIQRLQADWVLEIDTFLSQTPYGYRSFSNIISTLNPTAKRHLVLACHYDSKYFSHWNNRVFVGATDSAVPCAMMLELARALDKKLLSLKTVSDSKPDLSLQLIFFDGEEAFLHWSPQDSLYGSRHLAAKMASTPHPPGARGTSQLHGMDLLVLLDLIGAPNPTFPNFFPNSARWFERLQAIEHELHELGLLKDHSLEGRYFQNYSYGGVIQDDHIPFLRRGVPVLHLIPSPFPEVWHTMDDNEENLDESTIDNLNKILQVFVLEYLHL
A word on the KM: it is the concentration of substrate that gives half-maximal velocity. In the case of B1, in the series with H-Gln-Ala-Ala-NH2, the KM is 87 µM. Moreover, the KM (determined in absence of DMSO) in series [Gln^3]Aβ3-11a was 87 ± 3 µM.
